Experimental data as given in patent US20040077531A1, “Use of galanin-like peptide” (priority 2001, published 2004).

Target: T1, Rat GALR2 (Rattus norvegicus, UniProt O08726)
T1 construct: expressed in transfected cells; host or cells: CHO/dhfr- cells (ATCC), vector pAKKO-1.11; membrane fraction
T1 sequence (O08726 1-372): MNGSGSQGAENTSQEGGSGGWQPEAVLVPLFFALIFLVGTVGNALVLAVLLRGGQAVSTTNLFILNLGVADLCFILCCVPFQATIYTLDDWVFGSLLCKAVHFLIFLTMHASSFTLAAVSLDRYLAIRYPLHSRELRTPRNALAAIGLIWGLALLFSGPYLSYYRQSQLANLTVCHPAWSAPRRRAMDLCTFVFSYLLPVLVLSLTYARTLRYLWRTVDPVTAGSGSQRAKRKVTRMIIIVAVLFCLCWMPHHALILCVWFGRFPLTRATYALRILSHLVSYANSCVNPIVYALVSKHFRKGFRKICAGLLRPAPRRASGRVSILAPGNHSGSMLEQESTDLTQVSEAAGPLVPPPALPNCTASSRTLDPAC
Test: Galanin receptor binding experiment using [125I]rat galanin, GALR2 membrane fraction

SMILES: CC(C)C[C@H](NC(=O)[C@H](CC(C)C)NC(=O)[C@H](Cc1ccc(O)cc1)NC(=O)CNC(=O)[C@H](C)NC(=O)[C@H](CO)NC(=O)[C@H](CC(N)=O)NC(=O)[C@H](CC(C)C)NC(=O)[C@@H](NC(=O)[C@H](Cc1c[nH]c2ccccc12)NC(=O)CNC(=O)CNC(=O)[C@H](CCCNC(=N)N)NC(=O)CNC(=O)[C@H](CCCNC(=N)N)NC(=O)[C@H](Cc1c[nH]cn1)NC(=O)[C@@H](NC(=O)[C@@H]1CCCN1C(=O)[C@H](C)N)C(C)C)[C@@H](C)O)C(=O)NCC(=O)N1CCC[C@H]1C(=O)N[C@H](C(=O)N[C@@H](CC(C)C)C(=O)N[C@@H](Cc1c[nH]cn1)C(=O)N1CCC[C@H]1C(=O)N1CCC[C@H]1C(=O)N[C@@H](CO)C(=O)N[C@@H](CCCNC(=N)N)C(=O)N[C@@H](C)C(=O)N[C@@H](CCC(=O)O)C(=O)O)C(C)C [SEQ ID NO: 43 pig (1-30), pig-type ligand peptide (1-30)]
- IC50: 1.4 nM

SMILES: CC(C)C[C@H](NC(=O)[C@H](CC(C)C)NC(=O)[C@H](Cc1ccc(O)cc1)NC(=O)CNC(=O)[C@H](C)NC(=O)[C@H](CO)NC(=O)[C@H](CC(N)=O)NC(=O)[C@H](CC(C)C)NC(=O)[C@@H](NC(=O)[C@H](Cc1c[nH]c2ccccc12)NC(=O)CNC(=O)CNC(=O)[C@H](CCCNC(=N)N)NC(=O)CNC(=O)[C@H](CCCNC(=N)N)NC(=O)[C@H](Cc1c[nH]cn1)NC(=O)[C@@H](NC(=O)[C@@H]1CCCN1C(=O)[C@H](C)N)C(C)C)[C@@H](C)O)C(=O)NCC(=O)N1CCC[C@H]1C(=O)N[C@H](C(=O)N[C@@H](CC(C)C)C(=O)N[C@@H](Cc1c[nH]cn1)C(=O)N1CCC[C@H]1C(=O)N1CCC[C@H]1C(=O)N[C@@H](CO)C(=O)N[C@@H](CCCNC(=N)N)C(=O)N[C@@H](C)C(=O)N[C@@H](CCC(=O)O)C(=O)NCC(=O)NCC(=O)NCC(=O)N[C@@H](CCCCN)C(=O)O)C(C)C [SEQ ID NO: 11 pig (1-34), pig-type ligand peptide (1-34)]
- IC50: 1.4 nM
